Reference: PubChem BioAssay AID651647 (Sanford-Burnham Center for Chemical Genomics, 2012)
The entries are a selection whose mix differs from that of the whole data set. Activity calls are given as the source filed them.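 Rule for the calls: active = GFP/RFP ratio change of at least 30% with cell ATP level not reduced by more than half and red fluorescence within 50% of control; inactive = the rest, inconclusive results apart.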

The molecules below were run against Matrix metalloproteinase-14 (Homo sapiens) (UniProt P50281) (assay: MT1-MMP activation inhibitors, cellular reporter – HT1080 RFP-PRO-GFP cells, GFP/RFP fluorescence, primary screen (AID 651647)). Details: overnight, at 20 µM, active compounds read high, percent of plate control window, DMSO zero.
Method in brief: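 Test system: HT1080 RFP-PRO-GFP cells; Benchmarks: DMSO and RFP-L50D-GFP cell wells; Timing: cells overnight before dosing, compound overnight, 37 °C, 5% CO2; Compound: one 20 µM compound dose with 1% DMSO; Read-out: GFP/RFP fluorescence ratio.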
CCC(=O)N(c1ccccc1)C1(COC)CCN(CCn2nnn(CC)c2=O)CC1 was tested, and the GFP/RFP ratio change was inactive: 0.278%.
With CCC(=O)N(c1ccccc1)C1(COC)CCN(CCc2cccs2)CC1 the GFP/RFP ratio change was inactive: -4.07%.
